Assay results reported in ChEMBL document CHEMBL2150933, “A novel mithramycin analogue with high antitumor activity and less toxicity generated by combinatorial biosynthesis” (J Med Chem, 2012).

Legend:
Format in all cases: organism-based
[1] = (§1) Toxicity in ip dosed CD1 mouse administered as single dose; details: CD1, mouse, in vivo
Mus musculus [2] = assay: Toxicity in iv dosed CD1 mouse administered as single dose; details: in vivo
Mus musculus [3] = assay: as §1; details: mouse, in vivo
Mus musculus [4] = assay: Toxicity in iv dosed CD1 mouse administered Q3D for 8 days; details: in vivo, 192 h

Compound	MTD [1]	MTD (Mus musculus [2])	MTD (Mus musculus [3])	MTD (Mus musculus [4])
CO[C@H](C(=O)C(C)=O)[C@@H]1Cc2cc3cc(O[C@H]4C[C@@H](O[C@H]5C[C@@H](O)[C@H](O)[C@@H](C)O5)[C@H](O)[C@@H](C)O4)c(C)c(O)c3c(O)c2C(=O)[C@H]1O[C@H]1C[C@@H](O[C@H]2C[C@@H](O[C@H]3C[C@H](O)[C@H](O)[C@@H](C)O3)[C@H](O)[C@@H](C)O2)[C@H](O)[C@@H](C)O1	6.25 mg/kg	–	–	–
CO[C@H](C(=O)[C@@H](O)[C@@H](C)O)[C@@H]1Cc2cc3cc(O[C@H]4C[C@@H](O[C@H]5C[C@@H](O)[C@H](O)[C@@H](C)O5)[C@H](O)[C@@H](C)O4)c(C)c(O)c3c(O)c2C(=O)[C@H]1O[C@H]1C[C@@H](O[C@H]2C[C@@H](O[C@H]3C[C@](C)(O)[C@H](O)[C@@H](C)O3)[C@@H](O)[C@@H](C)O2)[C@H](O)[C@@H](C)O1 [PLICAMYCIN]	–	2 mg/kg	6.25 mg/kg	1.5 mg/kg
